Assay results as given in patent publication US12065622B2, “Ammonium-based ionic liquid and its use as a lubricant additive” (TOTALENERGIES ONETECH, priority 2020, dated 2024).

Test: Solubility test in base oil
Format: physicochemical
Details: lubricant composition of IL1 and base oil limpid after three months at room temperature (15-25° C.) and at 60° C.
Description: In order to check that the ammonium-based ionic liquid is oil-soluble, the following test has been achieved:
100 mL of the lubricant composition comprising IL1 and the base oil is introduced into two reaction tubes. One of the tubes is maintained at room temperature (between 15 and 25° C.) and the other reaction tube is placed in an oven at 60° C.
After three months, the lubricant composition of both reaction tubes was limpid.

Substance: Tri-n-Octylmethylammonium 2-Ethylhexanoate [IL1]
- solubility in the base oil: soluble in the oil
